Data as given in patent US20240360179A1, “STAPLED PEPTIDES AND METHODS THEREOF” (FOG PHARMACEUTICALS, INC., priority 2021, published 2024).

Amino acid sequences for entries named in this document (tags omitted).
UniProt P35222, whole entry: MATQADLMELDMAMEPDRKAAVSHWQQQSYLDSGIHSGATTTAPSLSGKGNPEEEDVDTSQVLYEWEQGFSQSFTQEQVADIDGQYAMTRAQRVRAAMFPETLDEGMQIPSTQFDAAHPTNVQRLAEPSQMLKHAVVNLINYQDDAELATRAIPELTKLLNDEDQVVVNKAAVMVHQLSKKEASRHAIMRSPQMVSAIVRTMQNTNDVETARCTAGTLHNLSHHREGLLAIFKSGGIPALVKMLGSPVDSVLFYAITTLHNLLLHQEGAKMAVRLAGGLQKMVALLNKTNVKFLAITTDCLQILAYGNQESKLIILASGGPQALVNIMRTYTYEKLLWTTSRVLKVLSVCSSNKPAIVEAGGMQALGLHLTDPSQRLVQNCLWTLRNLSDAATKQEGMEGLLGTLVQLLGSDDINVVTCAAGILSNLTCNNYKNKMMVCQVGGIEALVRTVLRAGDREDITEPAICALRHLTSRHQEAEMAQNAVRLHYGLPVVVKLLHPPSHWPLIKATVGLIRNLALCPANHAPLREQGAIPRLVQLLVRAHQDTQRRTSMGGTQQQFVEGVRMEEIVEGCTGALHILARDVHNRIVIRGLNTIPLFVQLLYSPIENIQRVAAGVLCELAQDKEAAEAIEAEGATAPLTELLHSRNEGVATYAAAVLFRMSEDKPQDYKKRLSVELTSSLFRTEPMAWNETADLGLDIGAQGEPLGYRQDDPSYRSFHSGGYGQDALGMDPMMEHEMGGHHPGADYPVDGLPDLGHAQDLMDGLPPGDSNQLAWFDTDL

Legend:
[1] = molecular target: T1, full-length B-Catenin (Uniprot ID P35222) (Homo sapiens, UniProt P35222); test: biochemical; assay type: binding; settings: beta-Catenin FP IC50 (nM), competition fluorescence polarization
T1 construct: 10 nM full-length B-Catenin (Uniprot ID P35222)

[2] = molecular target: beta-catenin/TCF4 interaction (Homo sapiens, UniProt P35222); test: cell-based; design: host or cells: HEK293; settings: NanoBRET Abs IC50 (uM), absolute IC50

Compound | IC50 [1] [nM] | IC50 [2] [µM]
CC(=O)N1CCC[C@]12CC=CCCCC1(CCCC=CCCCOC(=O)N3CC[C@@]4(C3)NC(=O)[C@H](CCCCNC(=O)CC[C@@H](C(=O)N[C@@H](C)C(N)=O)NC(=O)[C@H](Cc3csc5ccccc35)NC(=O)[C@H](Cc3ccsc3)NC4=O)NC(=O)[C@H](Cc3ccccc3)NC(=O)[C@H](C)NC(=O)[C@H](Cc3ccccc3)NC(=O)[C@H](Cc3cccc(C(=O)O)c3)NC(=O)[C@H](CC(=O)O)NC1=O)NC(=O)[C@H](CC(C)(C)C)NC(=O)[C@H](CC(=O)O)NC2=O (relative stereo) [I-386, Ac-PL3-Asp-Npg-B5-Asp-3COOHF-Phe-Ala-Phe-Lys*3-PyrS2-3Thi-BztA-GlnR*3-Ala-NH2] | < 50 | < 1.5
CC(=O)N1CCC[C@]12CC=CCCCC1(CCCC=CCCCOC(=O)N3CC[C@@]4(C3)NC(=O)[C@H](CCCCNC(=O)CC[C@@H](C(=O)NC(C)(C)C(N)=O)NC(=O)[C@H](Cc3csc5ccccc35)NC(=O)[C@H](Cc3ccsc3)NC4=O)NC(=O)[C@H](Cc3ccccc3)NC(=O)[C@H](C)NC(=O)C(C)(C)NC(=O)[C@H](Cc3cccc(C(=O)O)c3)NC(=O)[C@H](CC(=O)O)NC1=O)NC(=O)[C@H](CC(C)(C)C)NC(=O)[C@H](CC(=O)O)NC2=O (relative stereo) [I-397, Ac-PL3-Asp-Npg-B5-Asp-3COOHF-Aib-Ala-Phe-Lys*3-PyrS2-3Thi-BztA-GlnR*3-Aib-NH2] | < 50 | 1.5 to 3
CC(=O)N1CCC[C@]12CC=CCCCC1(CCCC=CCCCOC(=O)N3CC[C@@]4(C3)NC(=O)[C@H](CCCCNC(=O)CC[C@@H](C(=O)N[C@H](C(=O)N[C@@H](CO)C(N)=O)C(C)C)NC(=O)[C@H](Cc3csc5ccccc35)NC(=O)[C@H](Cc3ccsc3)NC4=O)NC(=O)[C@H](Cc3ccccc3)NC(=O)[C@H](C)NC(=O)C(C)(C)NC(=O)[C@H](Cc3cccc(C(=O)O)c3)NC(=O)[C@H](CC(=O)O)NC1=O)NC(=O)[C@H](CC(C)(C)C)NC(=O)[C@H](CC(=O)O)NC2=O (relative stereo) [I-399, Ac-PL3-Asp-Npg-B5-Asp-3COOHF-Aib-Ala-Phe-Lys*3-PyrS2-3Thi-BztA-GlnR*3-Val-Ser-NH2] | < 50 | < 1.5
CC(=O)N1CCC[C@]12CC=CCCCC1(CCCC=CCCCOC(=O)N3CC[C@@]4(C3)NC(=O)[C@H](CCCCNC(=O)CC[C@@H](C(=O)NC(C)(C)C(=O)N[C@@H](CO)C(N)=O)NC(=O)[C@H](Cc3csc5ccccc35)NC(=O)[C@H](Cc3ccsc3)NC4=O)NC(=O)[C@H](Cc3ccccc3)NC(=O)[C@H](C)NC(=O)C(C)(C)NC(=O)[C@H](Cc3cccc(C(=O)O)c3)NC(=O)[C@H](CC(=O)O)NC1=O)NC(=O)[C@H](CC(C)(C)C)NC(=O)[C@H](CC(=O)O)NC2=O (relative stereo) [I-400, Ac-PL3-Asp-Npg-B5-Asp-3COOHF-Aib-Ala-Phe-Lys*3-PyrS2-3Thi-BztA-GlnR*3-Aib-Ser-NH2] | < 50 | 1.5 to 3
CC(=O)N1CCC[C@]12CC=CCCCC1(CCCC=CCCCOC(=O)N3CC[C@@]4(C3)NC(=O)[C@H](CCCCNC(=O)CC[C@@H](C(=O)N[C@H](C(=O)N[C@@H](CO)C(N)=O)[C@@H](C)O)NC(=O)[C@H](Cc3csc5ccccc35)NC(=O)[C@H](Cc3ccsc3)NC4=O)NC(=O)[C@H](Cc3ccccc3)NC(=O)[C@H](C)NC(=O)C(C)(C)NC(=O)[C@H](Cc3cccc(C(=O)O)c3)NC(=O)[C@H](CC(=O)O)NC1=O)NC(=O)[C@H](CC(C)(C)C)NC(=O)[C@H](CC(=O)O)NC2=O (relative stereo) [I-401, Ac-PL3-Asp-Npg-B5-Asp-3COOHF-Aib-Ala-Phe-Lys*3-PyrS2-3Thi-BztA-GlnR*3-Thr-Ser-NH2] | < 50 | < 1.5
CC(=O)N1CCC[C@]12CC=CCCCC1(CCCC=CCCCOC(=O)N3CC[C@@]4(C3)NC(=O)[C@H](CCCCNC(=O)CC[C@@H](C(=O)N[C@H](C(=O)N[C@@H](C)C(N)=O)[C@@H](C)O)NC(=O)[C@H](Cc3csc5ccccc35)NC(=O)[C@H](Cc3ccsc3)NC4=O)NC(=O)[C@H](Cc3ccccc3)NC(=O)[C@H](C)NC(=O)C(C)(C)NC(=O)[C@H](Cc3cccc(C(=O)O)c3)NC(=O)[C@H](CC(=O)O)NC1=O)NC(=O)[C@H](CC(C)(C)C)NC(=O)[C@H](CC(=O)O)NC2=O (relative stereo) [I-406, Ac-PL3-Asp-Npg-B5-Asp-3COOHF-Aib-Ala-Phe-Lys*3-PyrS2-3Thi-BztA-GlnR*3-Thr-Ala-NH2] | < 50 | < 1.5
C[C@H](NC(=O)[C@@H]1CCC(=O)NCCCC[C@@H]2NC(=O)[C@H](Cc3ccccc3)NC(=O)[C@H](C)NC(=O)C(C)(C)NC(=O)[C@H](Cc3cccc(C(=O)O)c3)NC(=O)[C@H](CC(=O)O)NC(=O)[C@](C)(NC(=O)[C@@H]3CCCCCC(=O)N4CCC[C@@]4(C)C(=O)N[C@@H](CC(=O)O)C(=O)N3)CCCCCCCCOC(=O)N3CC[C@@](C3)(NC2=O)C(=O)N[C@@H](Cc2ccsc2)C(=O)N[C@@H](Cc2csc3ccccc23)C(=O)N1)C(N)=O (relative stereo) [I-425, 4penteny1-MePro-Asp-AllylGly-R5-Asp-3COOHF-Aib-Ala-Phe-Lys*3-PyrS2-3Thi-BztA-GlnR*3-Ala-NH2] | 50 to 200 | > 10

Continued, values first:

IC50 [1] [nM] | IC50 [2] [µM] | Compound
< 50 | 1.5 to 3 | CC(=O)NCCCC[C@@H]1NC(=O)[C@H](Cc2cccc(C(=O)O)c2)NC(=O)[C@H](CC(=O)O)NC(=O)C2(CCCC=CCCCOC(=O)N3CC[C@@]4(C3)NC(=O)[C@H](CCCCNC(=O)CC[C@@H](C(=O)N[C@@H](C)C(N)=O)NC(=O)[C@H](Cc3csc5ccccc35)NC(=O)[C@H](Cc3ccsc3)NC4=O)NC(=O)[C@H](Cc3ccccc3)NC(=O)[C@H](C)NC1=O)CCCC=CC[C@]1(CCCN1C(C)=O)C(=O)N[C@@H](CC(=O)O)C(=O)N[C@@H](CC(C)(C)C)C(=O)N2 (relative stereo) [I-381, Ac-PL3-Asp-Npg-B5-Asp-3COOHF-AcLys-Ala-Phe-Lys*3-PyrS2-3Thi-BztA-GlnR*3-Ala-NH2]
< 50 | 3 to 10 | CC(=O)N1CCC[C@]12CC=CCCCC1(CCCC=CCCCOC(=O)N3CC[C@@]4(C3)NC(=O)[C@H](CCCCNC(=O)CC[C@@H](C(=O)N[C@@H](C)C(N)=O)NC(=O)[C@H](Cc3csc5ccccc35)NC(=O)[C@H](Cc3ccsc3)NC4=O)NC(=O)[C@H](Cc3ccccc3)NC(=O)[C@H](C)NC(=O)[C@H](Cc3c[nH]cn3)NC(=O)[C@H](Cc3cccc(C(=O)O)c3)NC(=O)[C@H](CC(=O)O)NC1=O)NC(=O)[C@H](CC(C)(C)C)NC(=O)[C@H](CC(=O)O)NC2=O (relative stereo) [I-387, Ac-PL3-Asp-Npg-B5-Asp-3COOHF-His-Ala-Phe-Lys*3-PyrS2-3Thi-BztA-GlnR*3-Ala-NH2]
< 50 | < 1.5 | CC(=O)N1CCC[C@]12CC=CCCCC1(CCCC=CCCCOC(=O)N3CC[C@@]4(C3)NC(=O)[C@H](CCCCNC(=O)CC[C@@H](C(=O)N[C@@H](C)C(N)=O)NC(=O)[C@H](Cc3csc5ccccc35)NC(=O)[C@H](Cc3ccsc3)NC4=O)NC(=O)[C@H](Cc3ccccc3)NC(=O)[C@H](C)NC(=O)[C@H](C(C)C)NC(=O)[C@H](Cc3cccc(C(=O)O)c3)NC(=O)[C@H](CC(=O)O)NC1=O)NC(=O)[C@H](CC(C)(C)C)NC(=O)[C@H](CC(=O)O)NC2=O (relative stereo) [I-388, Ac-PL3-Asp-Npg-B5-Asp-3COOHF-Val-Ala-Phe-Lys*3-PyrS2-3Thi-BztA-GlnR*3-Ala-NH2]
< 50 | 1.5 to 3 | CC(=O)N1CCC[C@]12CC=CCCCC1(CCCC=CCCCOC(=O)N3CC[C@@]4(C3)NC(=O)[C@H](CCCCNC(=O)CC[C@@H](C(=O)N[C@H](C(N)=O)C(C)C)NC(=O)[C@H](Cc3csc5ccccc35)NC(=O)[C@H](Cc3ccsc3)NC4=O)NC(=O)[C@H](Cc3ccccc3)NC(=O)[C@H](C)NC(=O)C(C)(C)NC(=O)[C@H](Cc3cccc(C(=O)O)c3)NC(=O)[C@H](CC(=O)O)NC1=O)NC(=O)[C@H](CC(C)(C)C)NC(=O)[C@H](CC(=O)O)NC2=O (relative stereo) [I-396, Ac-PL3-Asp-Npg-B5-Asp-3COOHF-Aib-Ala-Phe-Lys*3-PyrS2-3Thi-BztA-GlnR*3-Val-NH2]
< 50 | 1.5 to 3 | CC(=O)N1CCC[C@]12CC=CCCCC1(CCCC=CCCCOC(=O)N3CC[C@@]4(C3)NC(=O)[C@H](CCCCNC(=O)CC[C@@H](C(=O)N[C@H](C(N)=O)[C@@H](C)O)NC(=O)[C@H](Cc3csc5ccccc35)NC(=O)[C@H](Cc3ccsc3)NC4=O)NC(=O)[C@H](Cc3ccccc3)NC(=O)[C@H](C)NC(=O)C(C)(C)NC(=O)[C@H](Cc3cccc(C(=O)O)c3)NC(=O)[C@H](CC(=O)O)NC1=O)NC(=O)[C@H](CC(C)(C)C)NC(=O)[C@H](CC(=O)O)NC2=O (relative stereo) [I-398, Ac-PL3-Asp-Npg-B5-Asp-3COOHF-Aib-Ala-Phe-Lys*3-PyrS2-3Thi-BztA-GlnR*3-Thr-NH2]
< 50 | > 10 | CC(=O)N1CCC[C@]12CC=CCCCC1(CCCC=CCCCOC(=O)N3CC[C@@]4(C3)NC(=O)[C@H](CCCCNC(=O)CC[C@@H](C(=O)N[C@@H](C)C(N)=O)NC(=O)[C@H](Cc3csc5ccccc35)NC(=O)[C@H](Cc3ccsc3)NC4=O)NC(=O)[C@H](Cc3ccccc3)NC(=O)[C@H](C)NC(=O)[C@](C)(CC(C)C)NC(=O)[C@H](Cc3cccc(C(=O)O)c3)NC(=O)[C@H](CC(=O)O)NC1=O)NC(=O)[C@H](CC(C)(C)C)NC(=O)[C@H](CC(=O)O)NC2=O (relative stereo) [I-432, Ac-PL3-Asp-Npg-B5-Asp-3COOHF-aMeL-Ala-Phe-Lys*3-PyrS2-3Thi-BztA-GlnR*3-Ala-NH2]
< 50 | 3 to 10 | CC(=O)N1CCC[C@]12CC=CCCCC1(CCCC=CCCCOC(=O)N3CC[C@@]4(C3)NC(=O)[C@H](CCCCNC(=O)CC[C@@H](C(=O)N[C@@H](C)C(N)=O)NC(=O)[C@H](Cc3csc5ccccc35)NC(=O)[C@H](Cc3ccsc3)NC4=O)NC(=O)[C@H](Cc3ccccc3)NC(=O)[C@H](C)NC(=O)[C@@](C)(CC(C)C)NC(=O)[C@H](Cc3cccc(C(=O)O)c3)NC(=O)[C@H](CC(=O)O)NC1=O)NC(=O)[C@H](CC(C)(C)C)NC(=O)[C@H](CC(=O)O)NC2=O (relative stereo) [I-433, Ac-PL3-Asp-Npg-B5-Asp-3COOHF-DaMeL-Ala-Phe-Lys*3-PyrS2-3Thi-BztA-GlnR*3-Ala-NH2]
